{"source": "patent US20240041861A1", "about": "“COMPOSITIONS AND METHODS FOR TREATMENT AND PROPHYLAXIS OF VIRAL INFECTIONS” (priority 2020, published 2024)", "origin": "cited, not measured here", "key": {"human subjects": {"test_system": "human subjects", "conditions": "in vivo"}, "rats": {"test_system": "rats", "conditions": "rat, in vivo, 1500 mg/kg/day"}}}
{"substance": "Bromelain", "values": [{"measurement": "changes in blood coagulation parameters", "setting": "human subjects", "value": "without significant changes"}, {"measurement": "carcinogenic or teratogenic effects", "setting": "rats", "value": "no carcinogenic or teratogenic effects"}]}
